This is a selection; strong and weak results do not stand in their true shares. The source made the active and inactive calls.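 How the source made its calls: active means inhibition above the mean inhibition of all tested sample wells plus 3 SD (cut at about 10% in these data); inactive means the rest.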

By UniProt entry, the sequences of proteins in these tests, tags left out.
UniProt P08659, whole entry, looked up: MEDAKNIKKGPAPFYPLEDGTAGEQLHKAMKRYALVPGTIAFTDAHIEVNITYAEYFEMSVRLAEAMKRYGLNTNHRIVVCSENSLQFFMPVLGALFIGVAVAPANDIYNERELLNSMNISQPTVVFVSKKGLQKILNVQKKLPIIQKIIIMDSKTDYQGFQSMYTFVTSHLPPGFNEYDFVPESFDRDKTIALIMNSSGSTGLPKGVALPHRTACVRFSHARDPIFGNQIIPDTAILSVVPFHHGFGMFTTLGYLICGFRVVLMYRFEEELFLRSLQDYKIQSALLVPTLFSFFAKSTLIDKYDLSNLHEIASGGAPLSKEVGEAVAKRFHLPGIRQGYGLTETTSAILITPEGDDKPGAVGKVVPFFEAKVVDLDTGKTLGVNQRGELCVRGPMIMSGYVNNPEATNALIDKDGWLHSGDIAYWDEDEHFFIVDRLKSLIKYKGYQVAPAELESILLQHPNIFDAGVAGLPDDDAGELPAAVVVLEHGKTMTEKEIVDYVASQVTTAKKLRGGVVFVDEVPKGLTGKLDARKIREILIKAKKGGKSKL

In the test the target is Luciferin 4-monooxygenase (Photinus pyralis) (UniProt P08659). The test is described as follows: native FLuc enzyme inhibition – biochemical, luminescence, triplicate, artefact control for HSP90 inhibitor project, confirmation (AID 1847).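 Further: 0% = DMSO with luciferase and 100% = wells lacking luciferase.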 As to conditions: purified native firefly luciferase, at 5.9 µM, active compounds read high.
As to `O=C(O)c1ccccc1[As](=O)(O)O`, the inhibition – broadly, the relative decrease from the control value, in per cent – was inactive: -2.8%.

Turning to `O=P(Nc1nccs1)(c1ccccc1)c1nc2ccccc2s1` (configuration not stated), the inhibition was inactive: -2.47%.

Source of the values: PubChem BioAssay AID1847 (The Scripps Research Institute Molecular Screening Center, 2009).
